Measurements reported in patent publication US9126999B2, “Tetrahydropyrazolopyrimidine compounds” (EISAI R&D MANAGEMENT CO., LTD., priority 2012, dated 2015).
pIC50: −log10 of the molar value. Like-named read-outs stand apart in the source and are kept apart here.

Amino acid sequences for entries named in this document (tags omitted). Residues count along the entry.
UniProt Q9NR97, 27-1041 limits assumed: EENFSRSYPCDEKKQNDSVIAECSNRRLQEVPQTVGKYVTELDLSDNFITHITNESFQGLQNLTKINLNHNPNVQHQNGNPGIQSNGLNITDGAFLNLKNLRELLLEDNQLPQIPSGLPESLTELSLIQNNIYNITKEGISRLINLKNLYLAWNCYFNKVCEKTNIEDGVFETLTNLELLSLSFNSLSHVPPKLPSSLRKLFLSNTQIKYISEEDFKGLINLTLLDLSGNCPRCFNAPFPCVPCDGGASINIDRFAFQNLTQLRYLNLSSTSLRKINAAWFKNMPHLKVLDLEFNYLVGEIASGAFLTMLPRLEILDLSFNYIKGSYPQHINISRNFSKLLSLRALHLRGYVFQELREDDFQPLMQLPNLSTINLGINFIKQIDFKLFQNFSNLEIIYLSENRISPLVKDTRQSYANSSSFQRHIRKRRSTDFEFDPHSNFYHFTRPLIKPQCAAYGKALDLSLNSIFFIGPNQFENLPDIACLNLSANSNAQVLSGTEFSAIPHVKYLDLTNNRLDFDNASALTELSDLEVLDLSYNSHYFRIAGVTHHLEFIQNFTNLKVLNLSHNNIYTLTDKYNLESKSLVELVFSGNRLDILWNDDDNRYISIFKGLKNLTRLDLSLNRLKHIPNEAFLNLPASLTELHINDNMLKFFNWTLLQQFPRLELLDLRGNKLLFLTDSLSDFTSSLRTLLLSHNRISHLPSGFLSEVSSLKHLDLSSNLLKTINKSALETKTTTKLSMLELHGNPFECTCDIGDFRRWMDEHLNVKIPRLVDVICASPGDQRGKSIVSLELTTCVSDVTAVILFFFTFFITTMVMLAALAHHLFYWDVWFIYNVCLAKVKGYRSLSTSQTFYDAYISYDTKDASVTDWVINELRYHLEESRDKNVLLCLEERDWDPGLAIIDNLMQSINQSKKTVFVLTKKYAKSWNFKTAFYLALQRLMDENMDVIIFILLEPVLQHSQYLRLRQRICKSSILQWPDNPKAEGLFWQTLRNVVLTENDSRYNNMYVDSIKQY
UniProt P58681, 27-1050 limits assumed: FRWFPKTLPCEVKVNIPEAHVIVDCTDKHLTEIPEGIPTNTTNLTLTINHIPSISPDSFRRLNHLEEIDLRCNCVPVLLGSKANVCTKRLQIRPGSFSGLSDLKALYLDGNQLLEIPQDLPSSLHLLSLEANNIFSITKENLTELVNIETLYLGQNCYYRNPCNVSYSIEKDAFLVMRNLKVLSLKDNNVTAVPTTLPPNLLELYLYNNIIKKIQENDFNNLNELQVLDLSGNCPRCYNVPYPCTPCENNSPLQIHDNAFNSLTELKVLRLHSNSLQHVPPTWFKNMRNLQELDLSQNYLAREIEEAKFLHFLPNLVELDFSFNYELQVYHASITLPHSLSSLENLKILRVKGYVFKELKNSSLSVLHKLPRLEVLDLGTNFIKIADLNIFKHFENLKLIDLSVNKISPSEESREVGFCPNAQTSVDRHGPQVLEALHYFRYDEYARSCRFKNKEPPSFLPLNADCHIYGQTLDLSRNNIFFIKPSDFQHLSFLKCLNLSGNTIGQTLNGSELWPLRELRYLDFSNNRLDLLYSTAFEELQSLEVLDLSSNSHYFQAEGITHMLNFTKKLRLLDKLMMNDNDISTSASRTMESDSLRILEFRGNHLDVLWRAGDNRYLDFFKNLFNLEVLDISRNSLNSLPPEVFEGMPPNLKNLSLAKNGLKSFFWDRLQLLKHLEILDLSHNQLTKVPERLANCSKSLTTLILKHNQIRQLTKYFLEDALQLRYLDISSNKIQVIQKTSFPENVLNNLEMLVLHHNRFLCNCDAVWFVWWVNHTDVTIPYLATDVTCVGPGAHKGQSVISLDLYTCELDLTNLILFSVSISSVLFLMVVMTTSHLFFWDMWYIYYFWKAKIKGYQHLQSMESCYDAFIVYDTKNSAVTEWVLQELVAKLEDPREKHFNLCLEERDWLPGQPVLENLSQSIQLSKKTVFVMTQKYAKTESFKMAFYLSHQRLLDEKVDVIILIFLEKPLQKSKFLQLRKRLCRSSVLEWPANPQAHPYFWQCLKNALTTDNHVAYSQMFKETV

Columns and labels:
Human TLR8 = Human TLR8 (Homo sapiens, UniProt Q9NR97); test: HEK-293 NF-kappaB luciferase reporter assay, CL097 stimulus; format: cell-based; settings: read-out: HEK/TLR8 IC50; human TLR8 in the HEK-293 assay format
Excerpt: In vitro pharmacology: HEK-293 cells (ATCC) were engineered to stably express a NF-kappaB transcription factor inducible E-selectin (ELAM-1) luciferase reporter derived from the plasmid pGL3 (Promega) containing base pairs −2241 bp to −254 bp from the promoter of the human E-selectin gene (Accession No. NM_000450). These cells were then subsequently engineered to stably and individually express human TLR4, TLR7 or TLR9 full-length ORF cDNAs. Human TLR4 cDNA (Accession No. NM_138554) was cloned into pcDNA 3.0 expression vector (Invitrogen). TLR4 transfected cells were also engineered to express human MD-2 co-receptor [MD-2 cDNA (Accession No. NM_015364) was cloned into the pEF-BOS vector] and were supplemented with 10 nM soluble CD14 (R&D Systems) in the media to optimize LPS responsiveness. Human TLR9 cDNA (Accession No. NM_017442) was cloned into the pBluescript II KS vector (Agilent). Human TLR7 cDNA (Accession No. NM_016562) was obtained from OriGene. HEK-293 cells stably expressing human TLR8 (Accession No. NM_138636) or mouse TLR7 (Accession No. NM_133211) were purchased from InvivoGen and were then stably transfected with pNiFty2(NF-kappaB)-luciferase reporter plasmid (InvivoGen). Each cell type was plated in Dulbecco's modified Eagle's medium (DMEM) containing 10% fetal bovine serum (FBS) at a density of 2.22×10^5 cells/ml into a 384-well plate and incubated for 2 days at 37° C., 5% CO2. Varying concentrations of antagonist compounds were then added. Cells were then incubated for another 30 minutes before adding the appropriate TLR agonist as follows (final concentrations indicated): lipopolysaccharide (LPS; Sigma) at 10 ng/ml for TLR4, CL097 (InvivoGen) at 3 ug/ml for human TLR7 and TLR8 and mouse TLR7, and CpG-2006-2A [sequence: […] (SEQ ID NO: 1) with phosphorothioate backbone, synthesized by Sigma-Aldrich] at 0.6 uM for TLR9.

Mouse TLR7 [1] = biological target: T1, Mouse TLR7 (Mus musculus, UniProt P58681); test: Short-term in vivo (STIV) assay: plasma IL-6 after s.c. R848
Method: Figure Legend: Female BALB/c mice were dosed by oral gavage with Vehicle alone (0.5% aqueous methyl-cellulose) or compound ER-892887 formulated in Vehicle at 100 mg/kg or 300 mg/kg. At 13 or 24 hours following oral dosing, mice were injected subcutaneously with 15 ug R848 to stimulate TLR7. Blood plasma was collected by cardiac puncture, and the IL-6 level at 1.5 hours after TLR7 stimulation was then assessed by standard ELISA procedure. Percent suppression indicated is relative to IL-6 induction following Vehicle control dosing. Statistical significance was determined by Mann-Whitney test.
To assess compound potency in vivo against mouse TLR7, a short-term in vivo (STIV) assay was utilized. Briefly, mice were orally dosed with compounds and at various time points afterwards were injected subcutaneously with agonist R848 to stimulate TLR7. The plasma IL-6 level following R848 stimulation was then measured by ELISA to assess compound potency and duration-of-action. […] Therefore, the activity of compounds in the STIV assay can be confidently attributed to their modulation of the TLR7 pathway. A single oral dose of ER-892887 at 300 mg/kg suppresses the R848/TLR7/IL-6 pathway in vivo by 80-90% for at least 24 hours (see FIG. 1).
Six to eight week old female BALB/c mice (Jackson Labs, Bar Harbor, Me.) were dosed by oral gavage in 200 ul volume with antagonist compounds formulated in 0.5% aqueous methyl-cellulose (Sigma, St. Louis, Mo.). At various time points afterwards, mice were injected subcutaneously (s.c.) in 100 ul volume with 15 ug R848 (Resiquimod; GLSynthesis, Worcester, Mass.) to stimulate TLR7. Blood plasma was collected by cardiac puncture, and levels of IL-6 at 1.5 hours after TLR7 stimulation were then assessed by standard ELISA procedure according to the manufacturer's recommended protocol (R&D Systems).

Human TLR7/8 = test: Human PBMC cell-based assay, RNA-Ig (SL4-Ig) stimulus, cytokine ELISA; settings: read-out: Human PBMC IC50, Human PBMC IL-6 Inhibition (SL4-Ig Ligand)
Mouse TLR7 [2] = biological target: T1, Mouse TLR7; test: Mouse spleen cell-based assay, R848 stimulus, IL-6 ELISA; settings: read-out: Mouse Splenocyte IC50, Mouse Splenocyte IL-6 Inhibition (R848 Ligand)
Method: Spleens were harvested from female BALB/c mice (Jackson Labs, Bar Harbor, Me.) euthanized by CO2. A single cell suspension was obtained by passing spleens through a 40 μm nylon cell strainer. Cells were washed twice with 50 ml PBS (Mediatech, Inc., Manassas, Va.) and red blood cells were lysed in 5 ml RBC Lysis buffer (eBioscience, Inc., San Diego, Calif.) for 5 minutes at room temperature. Cells were washed twice more in PBS and finally resuspended in supplemented RPMI-1640 at 2.5×10^6 cells/ml. Cells were plated at 100 μl/well (2.5×10^5 cells/well) in 96-well tissue culture treated plates (Falcon). Serial dilutions of compounds solubilized in 100% DMSO were added in triplicate to cells to yield a final concentration of 0.1% DMSO. Cells were incubated with compound for 30 minutes at 37° C., 5% CO2 before adding 100 μl/well of 740 nM R848 (Resiquimod; GLSynthesis, Worcester, Mass.) in complete media for a final concentration of 370 nM R848. Cells were incubated for 20 hours at 37° C., 5% CO2. Culture supernatants were collected, and levels of IL-6 were assessed by standard ELISA procedure according to the manufacturer's recommended protocol (BD Biosciences, Inc., San Diego, Calif.).

[3] = time point 3 hr, dose 100 mg/kg oral
[4] = time point 6 hr, dose 33 mg/kg oral
[5] = time point 6 hr, dose 100 mg/kg oral
[6] = time point 19 hr, dose 100 mg/kg oral

pIC50 (Human TLR8)	% Suppression vs. Vehicle (Mouse TLR7 [1]; [3]) [%]	% Suppression vs. Vehicle (Mouse TLR7 [1]; [4]) [%]	% Suppression vs. Vehicle (Mouse TLR7 [1]; [5]) [%]	pIC50 (Human TLR7/8)	pIC50 (Mouse TLR7 [2])	Compound	other results
6.82	98	48	99	6.46	6.20	CNC(=O)c1ccc(-c2cc3n(n2)[C@@H](C(F)(F)F)C[C@@H](c2ccc(OC)c(OC)c2)N3)cc1Cl	% Suppression vs. Vehicle (Mouse TLR7 [1]; time point 19 hr, dose 33 mg/kg oral): 53%; % Suppression vs. Vehicle (Mouse TLR7 [1]; [6]): 45%
–	98	98	98	–	6.64	COc1ccc([C@@H]2C[C@H](C(F)(F)F)n3nc(-c4ccc5[nH]ncc5c4C)cc3N2)cc1OC	% Suppression vs. Vehicle (Mouse TLR7 [1]; time point 13 hr, dose 33 mg/kg oral): 4%; % Suppression vs. Vehicle (Mouse TLR7 [1]; time point 13 hr, dose 100 mg/kg oral): 95%
–	–	–	–	–	6.35	COc1ccc([C@@H]2C[C@H](C(F)(F)F)n3nc(-c4cc5cn[nH]c5cc4C)cc3N2)cc1OC	–
6.60	–	–	–	6.26	–	COc1ccc([C@@H]2C[C@H](C(F)(F)F)n3nc(-c4ccc5[nH]c(=O)[nH]c5c4)cc3N2)cc1OC	–

Second part, the molecule before the results:

Compound	pIC50 (Human TLR8)	% Suppression vs. Vehicle (Mouse TLR7 [1]; [3]) [%]	% Suppression vs. Vehicle (Mouse TLR7 [1]; [4]) [%]	% Suppression vs. Vehicle (Mouse TLR7 [1]; [5]) [%]	pIC50 (Human TLR7/8)	pIC50 (Mouse TLR7 [2])	other results
COc1ccc([C@@H]2C[C@H](C(F)(F)F)n3nc(-c4ccc(C(=O)NC5CNC5)cc4)cc3N2)cc1OC	–	–	–	–	–	–	% Suppression vs. Vehicle (Mouse TLR7 [1]; time point 6 hr, dose 33 mg/kg oral, tested form: HCl): 35%; % Suppression vs. Vehicle (Mouse TLR7 [1]; time point 13 hr, dose 33 mg/kg oral, tested form: HCl): 34%; % Suppression vs. Vehicle (Mouse TLR7 [1]; time point 13 hr, dose 100 mg/kg oral, tested form: HCl): 56%; % Suppression vs. Vehicle (Mouse TLR7 [1]; time point 13 hr, dose 300 mg/kg oral, tested form: HCl): 81%; % Suppression vs. Vehicle (Mouse TLR7 [1]; time point 24 hr, dose 33 mg/kg oral, tested form: HCl): 25%; % Suppression vs. Vehicle (Mouse TLR7 [1]; time point 24 hr, dose 100 mg/kg oral, tested form: HCl): 39%; % Suppression vs. Vehicle (Mouse TLR7 [1]; time point 24 hr, dose 300 mg/kg oral, tested form: HCl): 70%; pIC50 (Mouse TLR7 [2]; tested form: HCl): 6.51
COc1ccc([C@@H]2C[C@H](C(F)(F)F)n3nc(-c4cccc(NC(C)=O)c4)cc3N2)cc1OC [ER-887738-00]	< 5.00	–	–	–	–	–	–
COc1ccc([C@@H]2C[C@H](C(F)(F)F)n3nc(-c4cccc(NC(C)=O)c4)cc3N2)cc1OC [ER-887734-00]	6.85	–	–	–	–	–	–
COc1ccc([C@@H]2C[C@H](C(F)(F)F)n3nc(-c4ccc(C(=O)N5CCC(N)C5)cc4)cc3N2)cc1OC (some centres unmarked)	–	–	–	–	–	–	pIC50 (Human TLR7/8; tested form: HCl): 7.57; pIC50 (Mouse TLR7 [2]; tested form: HCl): 6.70
Cc1nn(C)cc1[C@@H]1C[C@H](C(F)(F)F)n2nc(-c3ccc(NC(N)=O)cc3)cc2N1 (relative stereo)	6.34	–	–	–	5.71	5.40	–
COc1ccc([C@@H]2C[C@H](C(F)(F)F)n3nc(-c4ccc(C(=O)NCCCO)cc4)cc3N2)cc1OC	–	30	23	0	6.79	6.54	% Suppression vs. Vehicle (Mouse TLR7 [1]; [6]): 0%
